Tested on: Poria placenta
Assay: Synergism test: MIC of radial hyphae growth on malt extract/peptone agar, SI by Kull
Type: cell-based
Conditions: Example 2, penflufen/DCOIT; nutrient agar, 26° C

Substance: 4,5-dichloro-N-octylisothiazolin-3-one
- MIC against Poria placenta: 20.0 ppm
